From US7759499B2, “Compounds as inhibitors of hepatitis C virus NS3 serine protease” (Schering Corporation, priority 2004, dated 2010)

The chains behind the UniProt entries cited, without tags or fusion partners. Residues count along the entry.
UniProt P27958, 1027-1657: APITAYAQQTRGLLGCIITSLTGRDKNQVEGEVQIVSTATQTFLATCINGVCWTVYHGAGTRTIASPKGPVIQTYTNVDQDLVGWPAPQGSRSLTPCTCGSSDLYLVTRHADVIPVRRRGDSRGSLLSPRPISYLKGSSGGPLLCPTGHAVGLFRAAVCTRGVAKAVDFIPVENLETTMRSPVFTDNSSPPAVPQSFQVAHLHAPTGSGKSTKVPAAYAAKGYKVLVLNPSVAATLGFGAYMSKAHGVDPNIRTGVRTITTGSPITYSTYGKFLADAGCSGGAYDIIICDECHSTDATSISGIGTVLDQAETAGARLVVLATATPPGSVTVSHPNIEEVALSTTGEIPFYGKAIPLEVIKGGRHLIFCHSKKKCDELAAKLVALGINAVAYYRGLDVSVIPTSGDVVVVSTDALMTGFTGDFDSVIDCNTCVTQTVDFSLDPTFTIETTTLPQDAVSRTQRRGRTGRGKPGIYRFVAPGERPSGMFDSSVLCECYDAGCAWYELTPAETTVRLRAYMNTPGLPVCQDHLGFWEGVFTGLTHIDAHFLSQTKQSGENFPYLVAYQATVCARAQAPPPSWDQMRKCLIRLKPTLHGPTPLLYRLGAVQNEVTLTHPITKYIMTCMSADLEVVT
UniProt P27958, 1658-1711: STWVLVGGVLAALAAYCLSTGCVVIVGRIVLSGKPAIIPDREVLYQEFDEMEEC

Each molecule was assayed against Recombinant heterodimeric HCV NS3/NS4A protease (strain 1a) (Hepatitis C virus genotype 1a, UniProt P27958) (assay: Spectrophotometric assay for HCV protease inhibitory activity). Details: Table 1, range.
Format: biochemical

`C=CCNC(=O)C(=O)C(CCC)NC(=O)[C@@H]1[C@@H]2[C@H](CN1C(=O)[C@@H](NC(=O)N[C@H](CN(C)S(=O)(=O)N1CCC1)C(C)(C)C)C(C)(C)C)C2(C)C` (some centres unmarked) [Compound 10050] and `C#CCCC(NC(=O)[C@@H]1[C@@H]2[C@H](CN1C(=O)[C@@H](NC(=O)N[C@H](CN(C1CC1)S(=O)(=O)N(C)C)C(C)(C)C)C(C)(C)C)C2(C)C)C(=O)C(=O)NCC=C` (some centres unmarked) [Compound 10092] cannot be ordered by Ki: ≤ 75 nM for the first, ≤ 75 nM for the second.

`CN(C[C@@H](NC(=O)N[C@H](C(=O)N1C[C@H]2[C@@H]([C@H]1C(=O)NC(CC1CC1)C(=O)C(N)=O)C2(C)C)C(C)(C)C)C(C)(C)C)S(=O)(=O)NCCCCl` (some centres unmarked) [Compound 10022] and `CCNC(=O)C(=O)[C@@H](CCC(F)(F)F)NC(=O)[C@@H]1[C@@H]2[C@H](CN1C(=O)[C@@H](NC(=O)N[C@H](CN(C)S(=O)(=O)N(C)C)C(C)(C)C)C(C)(C)C)C2(C)C` [Compound 10012] cannot be ordered by Ki: ≤ 75 nM for the first, ≤ 75 nM for the second.

`C=CCNC(=O)C(=O)C(CCCC)NC(=O)[C@@H]1[C@@H]2[C@H](CN1C(=O)[C@@H](NC(=O)N[C@H](CN(C)S(=O)(=O)N(C)C(=O)OCc1ccccc1)C(C)(C)C)C(C)(C)C)C2(C)C` (some centres unmarked) [Compound 10082] and `C=CCNC(=O)C(=O)C(CCC)NC(=O)[C@@H]1[C@@H]2[C@H](CN1C(=O)[C@@H](NC(=O)N[C@H](CN(C)S(=O)(=O)N(C)C)C(C)C)C(C)(C)C)C2(C)C` (some centres unmarked) [Compound 10010] cannot be ordered by Ki: ≤ 75 nM for the first, ≤ 75 nM for the second.

Same assay, conditions: Table 2, range

`CCCCC(NC(=O)[C@@H]1[C@@H]2[C@H](CN1C(=O)[C@@H](NC(=O)N[C@H](CN(C)S(=O)(=O)c1cccs1)C(C)(C)C)C(C)(C)C)C2(C)C)C(=O)C(=O)NC` (some centres unmarked) [Compound 11259] and `CCCC(NC(=O)[C@@H]1[C@@H]2[C@H](CN1C(=O)[C@@H](NC(=O)N[C@H](CN(C)S(=O)(=O)c1cccs1)C(C)(C)C)C(C)(C)C)C2(C)C)C(=O)C(N)=O` (some centres unmarked) [Compound 11258] cannot be ordered by Ki: ≤ 75 nM for the first, ≤ 75 nM for the second.

`C=CCNC(=O)C(=O)C(CC1CCC1)NC(=O)[C@@H]1[C@@H]2[C@H](CN1C(=O)[C@@H](NC(=O)N[C@H](CN(C(C)C)S(=O)(=O)c1cccs1)C(C)(C)C)C(C)(C)C)C2(C)C` (some centres unmarked) [Compound 11238] and `C=CCNC(=O)C(=O)C(CCC)NC(=O)[C@@H]1[C@@H]2[C@H](CN1C(=O)[C@@H](NC(=O)N[C@H](CN(C)S(=O)(=O)c1cccs1)C(C)(C)C)C(C)(C)C)C2(C)C` (some centres unmarked) [Compound 11072] cannot be ordered by Ki: ≤ 75 nM for the first, ≤ 75 nM for the second.

`C=CCNC(=O)C(=O)C(CC1CC1)NC(=O)[C@@H]1[C@@H]2[C@H](CN1C(=O)[C@@H](NC(=O)N[C@H](CN(C)S(=O)(=O)c1cn(C)cn1)C(C)(C)C)C(C)(C)C)C2(C)C` (some centres unmarked) [Compound 11330] and `C=CCNC(=O)C(=O)C(CCCC)NC(=O)[C@@H]1[C@@H]2[C@H](CN1C(=O)[C@@H](NC(=O)N[C@H](CN(C)S(=O)(=O)c1cn(C)cn1)C(C)(C)C)C(C)(C)C)C2(C)C` (some centres unmarked) [Compound 11331] cannot be ordered by Ki: ≤ 75 nM for the first, ≤ 75 nM for the second.

`C=CCNC(=O)C(=O)C(CC1CC1)NC(=O)[C@@H]1[C@@H]2[C@H](CN1C(=O)[C@@H](NC(=O)N[C@H](CN(C)S(=O)(=O)c1ccc(F)cc1)C(C)(C)C)C(C)(C)C)C2(C)C` (some centres unmarked) [Compound 11334] and `C=CCNC(=O)C(=O)C(CC1CC1)NC(=O)[C@@H]1[C@@H]2[C@H](CN1C(=O)[C@@H](NC(=O)N[C@H](CN(C)S(=O)(=O)c1cc(Cl)ccc1OC)C(C)(C)C)C(C)(C)C)C2(C)C` (some centres unmarked) [Compound 11336] cannot be ordered by Ki: ≤ 75 nM for the first, ≤ 75 nM for the second.

`C=CCNC(=O)C(=O)C(CC1CC1)NC(=O)[C@@H]1[C@@H]2[C@H](CN1C(=O)[C@@H](NC(=O)NC1(CN(C)S(C)(=O)=O)CCCCC1)C1CCCCC1)C2(C)C` (some centres unmarked) [Compound 11070] and `C=CCNC(=O)C(=O)C(CC=C)NC(=O)[C@@H]1[C@@H]2[C@H](CN1C(=O)[C@@H](NC(=O)NC1(CN(C)S(C)(=O)=O)CCCCC1)C(C)(C)C)C2(C)C` (some centres unmarked) [Compound 11069] cannot be ordered by Ki: ≤ 75 nM for the first, ≤ 75 nM for the second.

`C=CCNC(=O)C(=O)C(CCCC)NC(=O)[C@@H]1[C@@H]2[C@H](CN1C(=O)[C@@H](NC(=O)N[C@H](CN(C)S(=O)(=O)CC)C(C)(C)C)C1Cc3ccccc3C1)C2(C)C` (some centres unmarked) [Compound 11285] and `C=CCNC(=O)C(=O)C(CCC)NC(=O)[C@@H]1[C@@H]2[C@H](CN1C(=O)[C@@H](NC(=O)N[C@H](CN(C)S(=O)(=O)C(C)(C)C)C(C)(C)C)C1Cc3ccccc3C1)C2(C)C` (some centres unmarked) [Compound 11248] cannot be ordered by Ki: ≤ 75 nM for the first, ≤ 75 nM for the second.

`C=CCNC(=O)C(=O)C(CCC)NC(=O)[C@@H]1[C@@H]2[C@H](CN1C(=O)[C@@H](NC(=O)N[C@H](CN(C)S(C)(=O)=O)C(C)(C)C)C(C)(C)C)C2(C)C` (some centres unmarked) [Compound 11088] and `CCCC(NC(=O)[C@@H]1[C@@H]2[C@H](CN1C(=O)[C@@H](NC(=O)N[C@H](CN(C)S(C)(=O)=O)C(C)(C)C)C(C)(C)C)C2(C)C)C(=O)C(N)=O` (some centres unmarked) [Compound 11257] cannot be ordered by Ki: ≤ 75 nM for the first, ≤ 75 nM for the second.

`CN(C[C@@H](NC(=O)N[C@H](C(=O)N1C[C@H]2[C@@H]([C@H]1C(=O)NC(CC1CCC1)C(=O)C(N)=O)C2(C)C)C1(C)CCCCC1)C(C)(C)C)S(C)(=O)=O` (some centres unmarked) [Compound 11252] and `C=CCNC(=O)C(=O)C(CC1CC1)NC(=O)[C@@H]1[C@@H]2[C@H](CN1C(=O)[C@@H](NC(=O)N[C@H](CN(C)S(C)(=O)=O)C(C)(C)C)C1(C)CCCCC1)C2(C)C` (some centres unmarked) [Compound 11253] cannot be ordered by Ki: ≤ 75 nM for the first, ≤ 75 nM for the second.

`CCCCC(NC(=O)[C@@H]1[C@@H]2[C@H](CN1C(=O)[C@@H](NC(=O)N[C@H](CN(C)S(=O)(=O)c1ccccn1)C(C)(C)C)C1Cc3ccccc3C1)C2(C)C)C(=O)C(=O)NCC` (some centres unmarked) [Compound 11377] and `CCCCC(NC(=O)[C@@H]1[C@@H]2[C@H](CN1C(=O)[C@@H](NC(=O)N[C@H](CN(C)S(=O)(=O)C(C)(C)C)C(C)(C)C)C1Cc3ccccc3C1)C2(C)C)C(=O)C(N)=O` (some centres unmarked) [Compound 11270] cannot be ordered by Ki: ≤ 75 nM for the first, ≤ 75 nM for the second.

`C=CCNC(=O)C(=O)C(CC1CCC1)NC(=O)[C@@H]1[C@@H]2[C@H](CN1C(=O)[C@@H](NC(=O)N[C@H](CN(C)S(=O)(=O)c1cccs1)C(C)(C)C)C1CCCCC1)C2(C)C` (some centres unmarked) [Compound 11292] and `C=CCNC(=O)C(=O)C(CC1CC1)NC(=O)[C@@H]1[C@@H]2[C@H](CN1C(=O)[C@@H](NC(=O)N[C@H](CN(C)S(=O)(=O)c1ccccn1)C(C)(C)C)C1CCCCC1)C2(C)C` (some centres unmarked) [Compound 11275] cannot be ordered by Ki: ≤ 75 nM for the first, ≤ 75 nM for the second.

`C=CCNC(=O)C(=O)C(CC1CC1)NC(=O)[C@@H]1[C@@H]2[C@H](CN1C(=O)[C@@H](NC(=O)N[C@H](CN(C)S(=O)(=O)CC)C(C)(C)C)C1(C)CCCCC1)C2(C)C` (some centres unmarked) [Compound 11318] and `C=CCNC(=O)C(=O)C(CCC(F)(F)F)NC(=O)[C@@H]1[C@@H]2[C@H](CN1C(=O)[C@@H](NC(=O)N[C@H](CN(C)S(C)(=O)=O)C(C)(C)C)C1(C)CCCCC1)C2(C)C` (some centres unmarked) [Compound 11256] cannot be ordered by Ki: ≤ 75 nM for the first, ≤ 75 nM for the second.

`CC(C)[C@@H](CN(C)S(C)(=O)=O)NC(=O)N[C@H](C(=O)N1C[C@H]2[C@@H]([C@H]1C(=O)NC(CC1CCC1)C(=O)C(N)=O)C2(C)C)C(C)(C)C` (some centres unmarked) [Compound 11020] and `CN(C[C@@H](NC(=O)N[C@H](C(=O)N1C[C@H]2[C@@H]([C@H]1C(=O)NC(CC1CCC1)C(=O)C(N)=O)C2(C)C)C(C)(C)C)C(C)(C)C)S(C)(=O)=O` (some centres unmarked) [Compound 11039] cannot be ordered by Ki: ≤ 75 nM for the first, ≤ 75 nM for the second.

First: C=CCNC(=O)C(=O)C(CC1CCC1)NC(=O)[C@@H]1[C@@H]2[C@H](CN1C(=O)[C@@H](NC(=O)NC[C@@H](N(C)S(=O)(=O)c1ccccc1)C(C)(C)C)C(C)(C)C)C2(C)C (some centres unmarked) [Compound 11312]
Second: CC(C)[C@@H](CN(CC1CC1)S(=O)(=O)c1ccccc1)NC(=O)N[C@H](C(=O)N1C[C@H]2[C@@H]([C@H]1C(=O)NC(CC1CC1)C(=O)C(N)=O)C2(C)C)C(C)(C)C (some centres unmarked) [Compound 11010]
The Ki of the first is higher: > 250 nM for the first, ≤ 75 nM for the second.

`CCCCC(NC(=O)[C@@H]1C[C@@H](OC(C)(C)C)CN1C(=O)[C@@H](NC(=O)N[C@H](CN(C)S(C)(=O)=O)C(C)(C)C)C1CCCCC1)C(=O)C(N)=O` (some centres unmarked) [Compound 11197] and `CN(C[C@@H](NC(=O)N[C@H](C(=O)N1C[C@H](OC(C)(C)C)C[C@H]1C(=O)NC(CC1CCC1)C(=O)C(N)=O)C1CCCCC1)C(C)(C)C)S(C)(=O)=O` (some centres unmarked) [Compound 11185] cannot be ordered by Ki: ≤ 75 nM for the first, ≤ 75 nM for the second.

`C#CCCC(NC(=O)[C@@H]1[C@@H]2[C@H](CN1C(=O)[C@@H](NC(=O)N[C@H](CN(C)S(=O)(=O)c1cccs1)C(C)(C)C)C1(C)CCCCC1)C2(C)C)C(=O)C(=O)NCC=C` (some centres unmarked) [Compound 11298] and `CN(C[C@@H](NC(=O)N[C@H](C(=O)N1C[C@H]2[C@@H]([C@H]1C(=O)NC(CC1CC1)C(=O)C(N)=O)C2(C)C)C(C)(C)C)C(C)(C)C)S(C)(=O)=O` (some centres unmarked) [Compound 11117] cannot be ordered by Ki: ≤ 75 nM for the first, ≤ 75 nM for the second.

For `CC(C)(C)[C@H](NC(=O)NC1(Cc2ccccn2)CCCN(S(C)(=O)=O)C1)C(=O)N1C[C@H]2[C@@H]([C@H]1C(=O)NC(CC1CC1)C(=O)C(N)=O)C2(Cl)Cl` (some centres unmarked) [Compound 11016], the Ki was > 250 nM.

Same assay, conditions: Table 3, range

`CC(C)(C)[C@H](NC(=O)NC1(CNS(=O)(=O)c2ccccc2)CCCC1)C(=O)N1C[C@H]2[C@@H]([C@H]1C(=O)NC(CC1CC1)C(=O)C(N)=O)C2(C)C` (some centres unmarked) [Compound 12007] and `CC(C)(C)[C@H](NC(=O)NC1(CNS(C)(=O)=O)CCCCC1)C(=O)N1C[C@H]2[C@@H]([C@H]1C(=O)NC(CC1CCC1)C(=O)C(N)=O)C2(C)C` (some centres unmarked) [Compound 12020] cannot be ordered by Ki: ≤ 75 nM for the first, ≤ 75 nM for the second.

With `CC(C)CC(C)(CNS(=O)(=O)c1ccccc1)NC(=O)N[C@H](C(=O)N1C[C@H]2[C@@H]([C@H]1C(=O)NC(CC1CC1)C(=O)C(N)=O)C2(C)C)C(C)(C)C` (some centres unmarked) [Compound 12005] the Ki was 75 to 250 nM.

Same assay, conditions: Table 4, range

For `CN(C[C@@H](NC(=O)N[C@H](C(=O)N1C[C@H]2[C@@H]([C@H]1C(=O)NC(CC1CC1)C(=O)C(N)=O)C2(C)C)C(C)(C)C)C(C)(C)C)C(=O)C(F)(F)F` (some centres unmarked) [Compound 13023], the Ki was ≤ 75 nM.

Same assay, conditions: Table 5A, range

`C=CCNC(=O)C(=O)C(CC1CC1)NC(=O)[C@@H]1[C@@H]2[C@H](CN1C(=O)[C@@H](NC(=O)N[C@H](CN(C)S(=O)(=O)c1ccccn1)C(C)(C)C)C1Cc3ccccc3C1)C2(C)C` (some centres unmarked) [Compound 11397] and `C=CCNC(=O)C(=O)C(CCCC)NC(=O)[C@@H]1[C@@H]2[C@H](CN1C(=O)[C@@H](NC(=O)N[C@H](CN(C)S(=O)(=O)CC)C(C)(C)C)C1(C)Cc3ccccc3C1)C2(C)C` (some centres unmarked) [Compound 11425] cannot be ordered by Ki: 75 to 250 nM for the first, ≤ 75 nM for the second.

Same assay, conditions: Table 6

`C#CCCC(NC(=O)[C@@H]1[C@@H]2[C@H](CN1C(=O)[C@@H](NC(=O)N[C@H](CN(C)S(=O)(=O)N(C)C)C(C)(C)C)C(C)(C)C)C2(C)C)C(=O)C(=O)NCC=C` (some centres unmarked) [drawing 59] gave a Ki of 2.6 nM.
